Here are results for one compound from ChEMBL document CHEMBL1146612, “Identification of a dual histamine H1/H3 receptor ligand based on the H1 antagonist chlorpheniramine” (Bioorg Med Chem Lett, 2003).

Sequences of proteins named here, by UniProt entry; tags and fusion partners are left off.
UniProt P31390, whole entry: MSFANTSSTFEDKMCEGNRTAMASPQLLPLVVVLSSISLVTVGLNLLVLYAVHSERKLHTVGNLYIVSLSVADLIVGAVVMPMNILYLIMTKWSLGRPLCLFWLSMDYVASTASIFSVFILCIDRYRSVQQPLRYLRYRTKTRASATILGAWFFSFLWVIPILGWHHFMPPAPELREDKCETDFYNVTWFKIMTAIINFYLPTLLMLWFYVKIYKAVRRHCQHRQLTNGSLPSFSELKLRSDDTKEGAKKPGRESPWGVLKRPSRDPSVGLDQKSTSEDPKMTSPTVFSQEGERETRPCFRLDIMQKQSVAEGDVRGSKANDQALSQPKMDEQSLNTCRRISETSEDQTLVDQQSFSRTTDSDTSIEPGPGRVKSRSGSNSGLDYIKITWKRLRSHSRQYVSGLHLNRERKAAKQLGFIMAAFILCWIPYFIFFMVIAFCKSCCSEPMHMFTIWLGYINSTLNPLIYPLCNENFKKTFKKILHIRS

In this experiment the target is Histamine H1 receptor (Rattus norvegicus, UniProt P31390). The experiment can be described thus: Ability to displace [3H]pyrilamine from histamine H1 receptor in male Sprague-Dawley rat brain membranes. The format is tissue-based, Membrane.

The structures appear in SMILES notation.

Usually Ki stands for the dissociation constant of the complex between target and ligand, obtained from inhibition or displacement. A higher Ki goes with a looser hold on the target.

`CN(C)CCC(c1ccc(Cl)cc1)c1ccccn1` (stereo unspecified) [CHLORPHENIRAMINE] yielded an inhibition constant (Ki) of 2 nM.
